Reference: patent US7495127B2, “Potassium channel opener” (Mitsubishi Tanabe Pharma Corporation, priority 2001, dated 2009)

By UniProt entry, the sequences of proteins in these tests, tags left out. Where a name states a change or a piece, a line headed by the entry shows the natural chain unless it says otherwise.
UniProt Q62976: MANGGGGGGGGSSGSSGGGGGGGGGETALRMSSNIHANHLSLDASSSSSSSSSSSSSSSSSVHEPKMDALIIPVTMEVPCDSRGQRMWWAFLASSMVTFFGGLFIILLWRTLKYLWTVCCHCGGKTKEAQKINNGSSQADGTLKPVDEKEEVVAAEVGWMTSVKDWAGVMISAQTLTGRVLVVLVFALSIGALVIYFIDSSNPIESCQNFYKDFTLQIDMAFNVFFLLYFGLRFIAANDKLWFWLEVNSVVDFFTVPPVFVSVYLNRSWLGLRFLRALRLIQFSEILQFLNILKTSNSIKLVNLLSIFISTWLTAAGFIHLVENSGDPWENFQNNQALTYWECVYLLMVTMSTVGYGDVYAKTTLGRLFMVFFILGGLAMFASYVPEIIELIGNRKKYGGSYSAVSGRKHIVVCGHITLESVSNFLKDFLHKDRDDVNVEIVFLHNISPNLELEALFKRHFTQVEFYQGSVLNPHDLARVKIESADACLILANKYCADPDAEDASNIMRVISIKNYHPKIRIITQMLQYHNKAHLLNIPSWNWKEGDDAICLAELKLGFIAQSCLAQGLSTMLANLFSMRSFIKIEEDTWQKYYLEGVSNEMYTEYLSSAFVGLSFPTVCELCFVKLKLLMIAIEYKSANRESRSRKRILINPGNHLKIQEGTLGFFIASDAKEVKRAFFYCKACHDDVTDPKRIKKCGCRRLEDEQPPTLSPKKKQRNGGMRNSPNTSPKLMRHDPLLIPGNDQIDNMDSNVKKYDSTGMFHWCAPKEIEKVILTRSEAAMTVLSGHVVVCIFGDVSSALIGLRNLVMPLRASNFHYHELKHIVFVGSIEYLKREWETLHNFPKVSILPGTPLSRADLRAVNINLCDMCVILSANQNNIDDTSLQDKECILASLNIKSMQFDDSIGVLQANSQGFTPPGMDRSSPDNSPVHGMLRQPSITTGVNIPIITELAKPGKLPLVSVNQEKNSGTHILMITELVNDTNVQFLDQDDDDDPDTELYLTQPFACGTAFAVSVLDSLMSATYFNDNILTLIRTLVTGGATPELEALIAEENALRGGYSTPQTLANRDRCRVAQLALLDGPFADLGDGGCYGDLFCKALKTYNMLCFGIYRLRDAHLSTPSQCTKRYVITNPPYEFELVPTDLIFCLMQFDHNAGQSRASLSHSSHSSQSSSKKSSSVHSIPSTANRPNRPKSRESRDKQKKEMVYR

Target: T1, BKαβ1 (Rattus norvegicus, UniProt Q62976)
T1 construct: expressed in transfected cells; host or cells: HEK293
Assay: Concentration-dependent block of macroscopic currents by ChTX in HEKBKαβ1, in the absence and presence of pimaric acid
Format: cell-based
Settings: for Kd: read-out: Kd (apparent dissociation constant of ChTX); for IC50: read-out: half-maximum concentration of ChTX for the block of BK channel current
Method: To determine whether pimaric acid changes the binding of charybdotoxin (ChTX) to BK channels, the concentration-dependent block of macroscopic currents by ChTX was measured in HEKBKαβ1, in the absence and presence of 10 μm pimaric acid. The outward currents elicited by depolarization from −60 mV in 10 mV steps were enhanced at potentials positive to −20 mV. The current at +40 mV was increased from 1214±153 to 2527±448 pA (n=5, p<0.05). […] The remaining components in the presence of 100 nM ChTX include native delayed rectifier K^+ currents and unblocked BKαβ1. The currents at +40 mV in the presence of 10 μm pimaric acid was reduced from 2527±448 pA to 499±90 pA (p<0.01 versus before the application of and in the presence of 10 μm pimaric acid). Cumulative addition of ChTX in the range of 3 to 100 nM reduced outward current in a concentration dependent manner. A concentration-response relationship for ChTX-induced block was also obtained in the absence of pimaric acid; the current amplitude at +40 mV was reduced from 1233±226 to 205±46 pA by addition of 100 nM ChTX (n=5, p<0.01). The normalized data were well fitted with the Hill equation modified for the concentration-response relationship. Iblock=(1−C)/{1+(Kd/[ChTX])^nH}, where Kd is the apparent dissociation constant of ChTX, [ChTX] is the concentration of ChTX, nH is the Hill coefficient, and C is the constant. […] The C values which may correspond to the native K^+ currents insensitive to ChTX, were 0.077±0.0226 and 0.0965±0.0388 (p>0.05), respectively. The relationship in the presence of 10 μm pimaric acid was almost identical with that in its absence. The half-maximum concentrations of ChTX for the block of BK channel current were almost identical each other in the absence and presence of pimaric acid (7.66 and 6.72 nM).

Question: Which results are given for charybdotoxin [ChTX]?
Answer: Kd (absence of pimaric acid): 7.66 ± 2.66 nM; Kd (presence of 10 μm pimaric acid): 6.72 ± 2.26 nM; IC50 (absence of pimaric acid): 7.66 nM; IC50 (presence of pimaric acid): 6.72 nM

Read-outs that look alike come from different tables or passages of the source.
